Tested on: human pancreatic carcinoma MIA PaCa-2
Conditions: Day 8, 80 mg/kg Q4D x 4 IP, mice No. 1-8

Nc1ccn([C@@H]2O[C@H](CO)[C@@H](O)C2(F)F)c(=O)n1 [Gemcitabine, reference compound]
Tumor Volume, individual mice: 114 mm3

From patent publication US11331299B2, “Medicinal use of serrulatane diterpenes” (The University of Sydney, priority 2016, dated 2022)
